In ChEMBL document CHEMBL1126435, “DuP 747: a new, potent, kappa opioid analgesic. Synthesis and pharmacology1” (Bioorg Med Chem Lett, 1992):
pKi: −log10 of the molar value.

Sequences of proteins named here, by UniProt entry; tags and fusion partners are left off. A change or cut given only in a name is not applied to a line headed by its entry.
UniProt Q99720, whole entry, looked up: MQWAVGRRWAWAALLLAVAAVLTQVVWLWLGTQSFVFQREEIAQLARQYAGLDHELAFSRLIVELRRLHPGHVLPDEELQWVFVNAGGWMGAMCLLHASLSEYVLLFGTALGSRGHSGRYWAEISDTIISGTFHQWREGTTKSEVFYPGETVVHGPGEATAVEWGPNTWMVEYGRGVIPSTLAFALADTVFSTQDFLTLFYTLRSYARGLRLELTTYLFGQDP
UniProt P35372, whole entry, looked up: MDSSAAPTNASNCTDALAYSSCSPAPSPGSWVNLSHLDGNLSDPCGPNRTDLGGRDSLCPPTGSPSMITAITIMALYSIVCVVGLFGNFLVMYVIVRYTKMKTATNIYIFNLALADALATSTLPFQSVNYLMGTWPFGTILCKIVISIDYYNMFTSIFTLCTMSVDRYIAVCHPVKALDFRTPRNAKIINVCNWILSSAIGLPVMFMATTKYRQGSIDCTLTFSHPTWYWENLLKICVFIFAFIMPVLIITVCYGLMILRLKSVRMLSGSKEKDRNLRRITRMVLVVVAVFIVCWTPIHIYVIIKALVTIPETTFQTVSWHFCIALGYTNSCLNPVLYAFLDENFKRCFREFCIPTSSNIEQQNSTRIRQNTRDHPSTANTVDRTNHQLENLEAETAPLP
UniProt P41143, whole entry, looked up: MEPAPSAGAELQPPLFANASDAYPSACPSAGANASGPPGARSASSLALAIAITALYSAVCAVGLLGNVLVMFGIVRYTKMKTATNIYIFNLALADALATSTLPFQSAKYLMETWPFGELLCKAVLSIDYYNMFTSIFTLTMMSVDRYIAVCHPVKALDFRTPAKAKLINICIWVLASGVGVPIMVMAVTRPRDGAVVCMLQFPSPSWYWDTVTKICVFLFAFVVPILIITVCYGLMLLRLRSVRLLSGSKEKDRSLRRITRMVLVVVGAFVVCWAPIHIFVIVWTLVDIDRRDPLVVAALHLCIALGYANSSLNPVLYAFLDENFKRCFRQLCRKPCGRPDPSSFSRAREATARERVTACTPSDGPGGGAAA
UniProt P41145: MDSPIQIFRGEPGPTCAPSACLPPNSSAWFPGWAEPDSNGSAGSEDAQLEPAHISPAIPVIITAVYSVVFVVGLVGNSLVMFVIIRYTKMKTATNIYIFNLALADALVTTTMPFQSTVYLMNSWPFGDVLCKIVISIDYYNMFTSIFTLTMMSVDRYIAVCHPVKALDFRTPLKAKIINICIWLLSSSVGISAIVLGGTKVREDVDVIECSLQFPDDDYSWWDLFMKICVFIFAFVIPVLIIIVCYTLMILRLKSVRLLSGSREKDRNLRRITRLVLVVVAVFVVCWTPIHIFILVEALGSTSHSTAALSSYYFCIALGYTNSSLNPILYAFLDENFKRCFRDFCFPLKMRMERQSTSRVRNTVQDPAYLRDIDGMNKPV

Legend:
[1] = molecular target: Sigma non-opioid intracellular receptor 1 (Homo sapiens, UniProt Q99720)
Mu-type opioid receptor = Mu-type opioid receptor (Homo sapiens, UniProt P35372)
[2] = molecular target: Delta-type opioid receptor (Homo sapiens, UniProt P41143)
[3] = molecular target: Kappa-type opioid receptor (Homo sapiens, UniProt P41145)

Row | SMILES | pKi [1] | pKi (Mu-type opioid receptor) | pKi [2] | pKi [3]
1 | CN(C(=O)Cc1ccc(Cl)c(Cl)c1)C1CCCCC1N1CCCC1 (centres undefined) | 6.16 | 6.08 | 4.68 | 
2 | CN(C(=O)Cc1ccc(Cl)c(Cl)c1)[C@H]1c2ccccc2CC[C@@H]1N1CCCC1 |  | 6.26 | 5.00 | 8.00
3 | COc1cccc2c1CC[C@H](N1CCCC1)[C@H]2N(C)C(=O)Cc1ccc(Cl)c(Cl)c1 |  | 6.52 | 5.68 | 8.22
